# scFv variants of Ab-14 (light chain) against a SARS-CoV-2 spike peptide

Source: Engelhart et al. 2022 (doi:10.1038/s41597-022-01779-4), MIT Lincoln Laboratory and A-Alpha Bio; data file from the FLAb repository.

Binding partner: SARS-CoV-2 spike HR2 peptide, sequence PDVDLGDISGINAS.

Parent: Ab-14, a human scFv built as VH, a 15-residue (Gly4Ser)3 linker, VL. Only the CDRs of the light chain vary.
VH: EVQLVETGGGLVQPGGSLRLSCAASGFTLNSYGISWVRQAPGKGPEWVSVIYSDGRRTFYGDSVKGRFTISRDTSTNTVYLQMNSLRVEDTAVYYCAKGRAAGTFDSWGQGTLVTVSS
VL: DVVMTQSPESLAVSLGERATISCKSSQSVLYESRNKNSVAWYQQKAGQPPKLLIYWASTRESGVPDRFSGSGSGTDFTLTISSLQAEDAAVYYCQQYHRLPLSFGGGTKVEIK

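The parent was found by panning a naive human phage display library on the peptide. Variants in AAYL50 differ from the parent at up to three CDR positions; double and triple changes were sampled at random. The assay is AlphaSeq: two haploid yeast populations carry antibody and antigen on their surface. Binding brings cells together so that they mate, and sequencing counts the barcode pairs among the diploids. Read counts were normalised to the haploid input and turned into Kd by a linear fit to BCL2-family pairs of known affinity, for each replicate. There are three technical replicates.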

The parent's light chain CDRs are KSSQSVLYESRNKNSVA, WASTRES, QQYHRLPLS; each variant's own CDRs replace them letter for letter.
The read-out is the apparent dissociation constant on a log10 scale (nM): the lower, the stronger.
"nd" means that the variant was in the library but no mating with the target was seen in that replicate; the authors take this as a sign of poor binding, and no number exists.
Empty control strains, which show no peptide, gave a signal in 18% of pairings with library AAYL50; the median was 4.19 and 95% of these signals were weaker than 2.99. No background was subtracted. The control count says in how many pairings with the empty strains this scFv gave a signal, with their mean in brackets.
Parent in this assay: reference entry 0.65, copy in this library 1.68.

CDR-L1	CDR-L2	CDR-L3	log10 Kd (nM) by replicate	empty controls
KSSQSVLYESGNKNSFA	WASNRES	QQYHRLPLS	4.24 / nd / nd	1 of 9 (3.66)
NTSQSVLYESRNKNSVA	WASTRES	QQFHRLPLS	2.19 / 1.66 / 1.79	2 of 9 (3.80)
KSSQSVLYESRNKNSVK	WASTRES	QVYHTLPLS	5.04 / nd / 4.06	0 of 9
KSSQSVLYESENKNSVA	WASARES	QQYHRFPLS	1.39 / 1.39 / 1.24	3 of 9 (4.36)
KSSQSVLYESRNKMSVA	WASTRSS	QSYHRLPLS	nd / 3.46 / nd	0 of 9
KSSQSVLYESRNKNSVA	WAWTRES	QFYHRLPLT	2.82 / nd / nd	1 of 9 (2.24)
KSSQSVMYEPRNKNSVA	WASTRSS	QQYHRLPLS	1.92 / 1.91 / 2.21	6 of 9 (5.05)
KSSQSVLYESRNKNIVA	WASTRES	GQYHRLPLP	nd / nd / nd	1 of 9 (4.12)
KSSQSVLYESRNKNSVA	WAITRQA	QQYHRLPLS	2.62 / 2.39 / 2.66	3 of 9 (3.79)
KKSQSVLYESRNKNSWA	PASTRES	QQYHRLPLS	5.57 / nd / nd	0 of 9
KSSQSVLYESRRKNSVA	WASTKES	WQYHRLPLS	nd / nd / 2.79	1 of 9 (3.76)
KSSQSVLQESRNKNSVA	WALTRES	QQYHRLPLH	nd / 3.83 / nd	0 of 9
KSSQSVLYESFNKNSVA	WASTRGS	QQCHRLPLS	0.74 / 0.80 / 0.82	1 of 9 (2.67)
KSSQSVLYESRNKNSVA	WISTRES	WQYHHLPLS	nd / nd / nd	0 of 9
GSSQSVLYESRNKNSSA	WAATRES	QQYHRLPLS	nd / 3.66 / nd	3 of 9 (3.81)
KSSQSVLYESRNKCTVA	GASTRES	QQYHRLPLS	0.96 / 1.07 / 1.15	1 of 9 (5.02)
KSSQSSLYASRNKNSVA	WASTRES	QQYHPLPLS	0.85 / 1.04 / 0.91	0 of 9
KSSQSVLYESRNWNSVA	WASCRGS	QQYHRLPLS	1.45 / 1.82 / 1.80	2 of 9 (4.66)
KSSQSVLYESRNKNSVA	WASTNES	CQYHRMPLS	nd / nd / 4.55	1 of 9 (4.11)
KSSQSVLYESHNKNSVA	WASTRES	QQYHRLPLE	1.00 / 1.39 / 1.16	3 of 9 (3.53)
KSSQSVLYYSRNKNSVF	WAHTRES	QQYHRLPLS	nd / nd / nd	0 of 9
KSSQSVLYMSRNKSSVA	WASTRES	QQYHILPLS	1.90 / 1.95 / 2.81	1 of 9 (4.59)
KSSQSVLYESRNKNMVA	WAQTRES	QQYHRLPLS	4.57 / 4.26 / 3.82	3 of 9 (4.11)
KSWQSVLYESRNKNSVA	WASTRCS	QQYSRLPLS	0.75 / 0.91 / 0.84	1 of 9 (4.88)
KSKQSVLYESRNKNSVA	WASTVES	QQYHYLPLS	2.96 / nd / 4.16	3 of 9 (3.52)
KSSQSVLAESRNKNSVA	WASTRES	QQYHRQPAS	4.48 / 3.29 / nd	3 of 9 (4.06)
KSSQSVLYESRNKNSVA	SASVRES	VQYHRLPLS	0.14 / 0.36 / 0.39	1 of 9 (2.15)
KSSQSVLYESRNKNSVA	WASTRES	QQYPMLPLS	2.10 / 1.89 / 2.37	3 of 9 (4.97)
KSSQSVLYESRSKNSVA	WAGTRES	QQYHRLPLN	nd / nd / nd	1 of 9 (4.79)
LSSQSVLYESRNKNKVA	WASTRES	QNYHRLPLS	nd / nd / nd	0 of 9
ASSQSVLYESRTKNSVA	WASTRES	QQYHRLPTS	3.88 / 2.65 / 2.91	1 of 9 (3.46)
KSSQSVLMESVNKNSVA	WASTRES	QQYHRLPTS	0.44 / 0.68 / 0.48	2 of 9 (4.20)
KSSQSVLYEVRNKNSVA	WASTRKS	QQYHRLPLS	4.39 / 4.04 / 4.69	3 of 9 (4.01)
KSSQSVLYESRNKCSVE	WASTRES	QQYHRLPLI	nd / nd / nd	0 of 9
KSSQSVLYESRNKNSVA	WAETRES	WQYHRLPYS	2.18 / 2.32 / 2.12	3 of 9 (3.89)
KSSQSVLYESRNKNSVA	WASTREN	GQYHRLPLS	nd / 2.57 / nd	0 of 9
KSSHTVLYESRNKNSVA	WASTREH	QQYHRLPLS	1.70 / 1.56 / 1.87	0 of 9
KSSQSVLYESRNKNWVA	WASTREM	QQYHRMPLS	4.21 / nd / nd	4 of 9 (3.67)
KSSQSVLYESRNKNSVA	WASTRIS	QQYQRLPLS	0.80 / 1.00 / 0.99	2 of 9 (4.95)
KSIQSVSYESRNKNSVA	WASTRES	QQYHFLPLS	2.13 / 2.41 / 2.40	3 of 9 (4.71)
KSSQSVLYECDNKNSVA	WACTRES	QQYHRLPLS	2.93 / nd / 3.45	2 of 9 (4.27)
KSSQSVLYESRNKHSVA	WAPTRES	QQYTRLPLS	1.16 / 1.41 / 1.82	2 of 9 (4.00)
KSPQSVLYESRCKNSVA	AASTRES	QQYHRLPLS	0.19 / 0.67 / 0.30	1 of 9 (2.80)
KSSQSVLYESRNKNVVA	WLSTRES	QQVHRLPLS	nd / 3.44 / nd	1 of 9 (4.00)
KSSHSVLYGSRNKNSVA	WASTRES	QQYHRLPIS	1.56 / 1.43 / 1.78	1 of 9 (3.45)
KSSQSVLYEPRNKNSVA	WASTRES	QQYHRLEDS	nd / nd / nd	2 of 9 (3.86)
ESSQSVLYESRNKNSVA	WASTAES	QNYHRLPLS	nd / nd / nd	0 of 9
KSSQSVLYDSRNKNSVA	WWSTRES	QQYHRLPLA	nd / nd / nd	0 of 9
KWSQSVLYESRNKNDVA	WASTRES	QQYHRDPLS	nd / 3.29 / nd	0 of 9

6 of these entries, quoted again:

CDR-L1	CDR-L2	CDR-L3	log10 Kd (nM) by replicate	empty controls
KSWQSVLYESRNKNSVA	WASTRCS	QQYSRLPLS	0.75 / 0.91 / 0.84	1 of 9 (4.88)
KSSHSVLYGSRNKNSVA	WASTRES	QQYHRLPIS	1.56 / 1.43 / 1.78	1 of 9 (3.45)
KKSQSVLYESRNKNSWA	PASTRES	QQYHRLPLS	5.57 / nd / nd	0 of 9
KSSQSVLYESRNKNMVA	WAQTRES	QQYHRLPLS	4.57 / 4.26 / 3.82	3 of 9 (4.11)
GSSQSVLYESRNKNSSA	WAATRES	QQYHRLPLS	nd / 3.66 / nd	3 of 9 (3.81)
KSSQSVLYESRNKNSVA	WAITRQA	QQYHRLPLS	2.62 / 2.39 / 2.66	3 of 9 (3.79)